One compound from PMC3727052 (Bioorganic & medicinal chemistry, 2012) can be followed below.

The test system of series [1] is Vero. To be noted: African green monkey.
In series [2] the test system is MDCK. To be noted: dog.
The test system of series [3] is HeLa. As to conditions: human.
Series [4] has as its system HEL. To be noted: human.

As for `NC(=O)c1ncn([C@@H]2O[C@H](CO)[C@@H](O)[C@H]2O)n1` [Ribavirin, reference compound], the “MCC (minimal cytotoxic concentration) Vero” value in series [1] is over 250 µM. Also, in series [2], the “MCC (minimal cytotoxic concentration) MDCK” value came to 20 µM. Besides, the “MCC (minimal cytotoxic concentration) HeLa” value in series [3] was over 250 µM. Further, the “MCC (minimal cytotoxic concentration) HEL” value in series [4] is over 250 µM.
